In US9096594B2 (dated 2015):

Columns and labels:
CDK2/CycE1 = CDK2/CycE1 (Homo sapiens (Human), UniProt P24941); assay: Carna Biosciences kinase assay, CDK2/CycE1; assay type: biochemical; details: read-out: IC50 μM, CDK2/CycE1; dose response
CDK2/CycA2 = CDK2/CycA2 (Homo sapiens (Human), UniProt P24941); assay: Carna Biosciences kinase assay, CDK2/CycA2; assay type: biochemical; details: read-out: IC50 μM, CDK2/CycA2; dose response

`COc1ccccc1[C@@H]1C2=C(CC(C)(C)CC2=O)Nc2n[nH]c(C)c21` [Compound 22] showed an IC50 (CDK2/CycE1) of 2.2 µM and an IC50 (CDK2/CycA2) of 1.5 µM.
